Reference: patent US20090143279A1 (priority 2007, published 2009)
Like-named read-outs stand apart in the source and are kept apart here.

Assays:
C2C12 myotubes = conditions: composite Z-score vs DMSO; Conc 20 μM
[1] = test system: cellular dehydrogenase activity; conditions: composite Z-score vs DMSO; Conc 20 μM
[2] = test system: mitochondrial membrane potential; conditions: composite Z-score vs DMSO; Conc 20 μM
reactive oxygen species = conditions: composite Z-score vs DMSO; Conc 20 μM
OXPHOS gene expression = conditions: composite Z-score vs DMSO; Conc 20 μM
nuOXPHOS transcripts = conditions: composite Z-score vs DMSO; Conc 20 μM
mtOXPHOS transcripts = conditions: composite Z-score vs DMSO; Conc 20 μM

Compound ergosterol acetate has a Viability (C2C12 myotubes) of 0.023, an MTT [1] of −1.580 and a ΔΨm [2] of 0.050. It also gave an ROS (reactive oxygen species) of 0.270, a GE-HTS (OXPHOS gene expression) of −0.380 and a nucOX (nuOXPHOS transcripts) of −0.220. It also gave a mitoOX (mtOXPHOS transcripts) of −0.680 and a cyt c (cytochrome c; composite Z-score vs DMSO, Conc 20 μM) of 0.346.

For `CNCC(O)c1ccc(O)c(O)c1` (stereo not drawn) [adrenaline], the cyt c (cytochrome c) was 0.173.
